Experimental data taken from publication PMC4307257 (International Journal of Molecular Sciences, 2014).

Molecular target: T1, human amyloid-β protein fragment (1–42) (human, UniProt P05067 672-713)
T1 construct: amyloid-β peptide 1-42, cut from the amyloid precursor protein (APP), human; numbers count on: the amyloid-β peptide; coupled covalently to Affi-Gel 10 or, by amine coupling, to a CM5 chip; also called amyloid-β peptide 1–42; amyloid-beta; source: bought: Sigma-Aldrich
Test: SPR; Biacore 3000, CM5 chip; amyloid-β or actin amine-coupled (100 µg/mL in 10 mM acetate pH 4.0); native or oxidized GAPDH 1–10 µM injected in 50 mM potassium phosphate pH 7.4, 5 µL/min, 5 min; equilibrium responses fitted to a single-site model; also with 0.1 mM isatin or 0.01–5 mM NAD
Conditions: both partners purified

Kd: 220 ± 20 nM
B1: Rabbit muscle glyceraldehyde-3-phosphate dehydrogenase (GAPDH), native (enzyme)
chain: not shown
notes: glyceraldehyde-3-phosphate dehydrogenase (EC 1.2.1.12), rabbit muscle; also called intact GAPDH; native GAPDH; source: purified from rabbit muscle (method of Scopes and Stoter)
